## AlphaSeq binding of Ab-95 light chain variants to a spike HR2 peptide

Binding partner: SARS-CoV-2 spike HR2 peptide, sequence PDVDLGDISGINAS.

The variants keep the heavy chain, the linker and the frameworks of Ab-95 (scFv order VH, a 15-residue (Gly4Ser)3 linker, VL).
VH: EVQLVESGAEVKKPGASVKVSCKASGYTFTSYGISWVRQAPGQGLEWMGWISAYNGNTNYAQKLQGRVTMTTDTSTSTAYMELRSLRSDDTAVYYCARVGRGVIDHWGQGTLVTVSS
VL: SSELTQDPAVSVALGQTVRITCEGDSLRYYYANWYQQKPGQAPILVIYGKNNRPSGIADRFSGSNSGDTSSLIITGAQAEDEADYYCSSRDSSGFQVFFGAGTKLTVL

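Phage display of a naive human antibody library on the peptide gave the parent. Variants in AAYL52 differ from the parent at up to three CDR positions; double and triple changes were sampled at random. The assay is AlphaSeq: two haploid yeast populations carry antibody and antigen on their surface. Binding brings cells together so that they mate, and sequencing counts the barcode pairs among the diploids. Read counts were normalised to the haploid input and turned into Kd by a linear fit to BCL2-family pairs of known affinity, for each replicate. Mating was done three times.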

Each variant is given by its three light chain CDRs, as the data file delimits them; those of the parent are EGDSLRYYYAN, GKNNRPS, SSRDSSGFQVF.
All variants listed here change D91 of the VL, counted from its first residue.
Affinities are written as log10 Kd with Kd in nM; a lower number is a better binder.
A mean of the replicates is given; it leaves out those without a signal.
An entry "nd" has no value in the source: the pair was not observed among the diploids in that replicate. This suggests poor binding but is not conclusive.
The list is sorted by this average, lowest first, undetected variants last.
Empty control strains, which show no peptide, gave a signal in 28% of pairings with library AAYL52; the median was 3.91 and 95% of these signals were weaker than 2.90. No background was subtracted.

Variant EGDSLRYNYAN | GKNNRPS | SSRQHSGFQVF gave 1.53, 1.42, 1.07 (mean 1.34). With EGDSLRYNYAN | GKNNRPS | SMRMSSGFQVF the result was 1.66, 1.85, 1.05 (mean 1.52). Variant GGASLRYYYAN | GKNNRPS | SSRMSSGFQVF gave 2.29, 1.73, 1.49 (mean 1.84). For EGDSLRGYYAN | GKNNRPA | SSRVSSGFQVF, the assay gave 2.25, 2.23, 1.09 (mean 1.86). For EGDSLRYYYAN | GKNNRPS | SVRNSSGYQVF, the assay gave 1.95, 1.87, 2.14 (mean 1.99). Variant EGDSLRYYYAN | GKNNRPS | SSRMSTGFQVF showed 1.92, 1.84, 2.47 (mean 2.08).

With EGDSLRTYYAN | GKNNRPS | SSRPSSGFQVG the result was 2.28, 2.17, 2.75 (mean 2.40). For EGDSLRYYYAN | GKNQVPS | SSRISSGFQVF, the assay gave 3.13, 2.33, 2.04 (mean 2.50). With EGDSLRYYYAN | GANNRPS | SSRWSWGFQVF the result was 2.43, 2.80, 2.28 (mean 2.50). Variant EGDSLRYYYAN | GKNNRPS | SSGKSSGFQGF gave nd, nd, 2.62. For EGDSLRYYYAN | GKNNRPS | SSRSSSGWQVF, the assay gave nd, 2.95, nd. Variant EGDSLRYYYAN | GKNNRPS | SSRISSGFTVF showed 3.41, 2.80, 2.91 (mean 3.04).

Variant EGDSLRYLYAN | GKNNRPS | SSRCSMGFQVF gave nd, 3.08, nd. With EGDSLRYYYAN | GKNNRPS | SSRHSSGFQVI the result was 3.52, 3.05, 2.89 (mean 3.15). Variant EGDSLRYCYAN | GKCNRPS | SSRVSSGFQVF gave 3.27, nd, nd. For EGDSLRYYYNN | GKNNTPS | SSRISSGFQVF, the assay gave 3.32, nd, nd. With EGDSLRYYYAR | GKNNPPS | SSRASSGFQVF the result was 3.89, 3.22, 2.83 (mean 3.32). Variant EGDSLRYYYVN | GKNNRPS | SSRLSSGFQMF gave nd, 3.38, nd.

Variant EGDSLRVYYAN | GKNNRPS | KSRISSGFQVF gave 3.74, nd, 3.39 (mean 3.57). With EGDSLRYYYLN | GKNNRPA | SSRLSSGFQVF the result was 3.68, 4.34, 3.93 (mean 3.98). Variant EGDSLLYYYAN | GKNNHPS | SSRCSSGFQVF gave 3.55, 4.60, nd (mean 4.07). With EGKSLRYYYAN | GKNWRPS | SSRMSSGFQVF the result was 5.20, 3.01, nd (mean 4.10). With EGDSLRYYYAN | GKNNRQS | SSRKDSGFQVF the result was nd, nd, 4.13. Variant EGDSLRYYYLN | GKNNKPS | SSRQSSGFQVF showed 4.67, 4.50, 3.60 (mean 4.25).

Variant EGDSLRYYYAN | GKNNRPS | SWRKSFGFQVF gave 5.51, 3.01, nd (mean 4.26). Variant EGDSLRKYYAN | AKNNRPS | SSRESSGFQVF gave 3.98, 4.97, nd (mean 4.47). For EGDSLRFYYAH | GKNNRPS | SSRFSSGFQVF, the assay gave 5.23, 3.94, nd (mean 4.58). With EGDSLRYYYAN | GKRNRPS | SSRMSSGFQVV the result was 4.83, nd, nd. For EGDSLRAYYAN | GKNNRPS | SSRQSEGFQVF, the assay gave nd, nd, nd. Variant EGDSLRYYYAD | GYNNRPS | SSRMSSGFQVF gave nd, nd, nd.

For EGDSLRVYYAN | GKNNRPS | SSRISSGRQVF, the assay gave nd, nd, nd. With EGDSLRYYYAN | GKINRPS | SSRHSNGFQVF the result was nd, nd, nd. With EGDSLRYYYAN | GKSNRPS | SSRCISGFQVF the result was nd, nd, nd.

Repeated from above, the 4 best binders with a signal in all replicates:

CDR-L1,CDR-L2,CDR-L3,"log10 Kd, replicates",mean log10 Kd (nM)
EGDSLRYNYAN,GKNNRPS,SSRQHSGFQVF,"1.53, 1.42, 1.07",1.34
EGDSLRYNYAN,GKNNRPS,SMRMSSGFQVF,"1.66, 1.85, 1.05",1.52
GGASLRYYYAN,GKNNRPS,SSRMSSGFQVF,"2.29, 1.73, 1.49",1.84
EGDSLRGYYAN,GKNNRPA,SSRVSSGFQVF,"2.25, 2.23, 1.09",1.86

In this assay the parent's reference entry averaged 2.31; its copy inside this library read 2.25.

The measurements come from Engelhart et al. 2022 (doi:10.1038/s41597-022-01779-4) through the FLAb antibody collection.